The record followed here is PubChem BioAssay (NCATS).

Amino acid sequences for entries named in this document (tags omitted).
UniProt P27695, whole entry: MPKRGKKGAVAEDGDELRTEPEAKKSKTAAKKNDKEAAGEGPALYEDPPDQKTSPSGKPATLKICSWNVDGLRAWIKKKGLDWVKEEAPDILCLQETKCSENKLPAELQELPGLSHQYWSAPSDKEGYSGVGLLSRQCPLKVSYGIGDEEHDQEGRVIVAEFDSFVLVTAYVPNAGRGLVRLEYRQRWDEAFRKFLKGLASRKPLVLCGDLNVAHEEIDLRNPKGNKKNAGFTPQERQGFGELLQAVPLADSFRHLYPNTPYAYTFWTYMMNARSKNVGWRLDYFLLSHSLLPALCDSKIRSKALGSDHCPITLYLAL
UniProt P46063, whole entry: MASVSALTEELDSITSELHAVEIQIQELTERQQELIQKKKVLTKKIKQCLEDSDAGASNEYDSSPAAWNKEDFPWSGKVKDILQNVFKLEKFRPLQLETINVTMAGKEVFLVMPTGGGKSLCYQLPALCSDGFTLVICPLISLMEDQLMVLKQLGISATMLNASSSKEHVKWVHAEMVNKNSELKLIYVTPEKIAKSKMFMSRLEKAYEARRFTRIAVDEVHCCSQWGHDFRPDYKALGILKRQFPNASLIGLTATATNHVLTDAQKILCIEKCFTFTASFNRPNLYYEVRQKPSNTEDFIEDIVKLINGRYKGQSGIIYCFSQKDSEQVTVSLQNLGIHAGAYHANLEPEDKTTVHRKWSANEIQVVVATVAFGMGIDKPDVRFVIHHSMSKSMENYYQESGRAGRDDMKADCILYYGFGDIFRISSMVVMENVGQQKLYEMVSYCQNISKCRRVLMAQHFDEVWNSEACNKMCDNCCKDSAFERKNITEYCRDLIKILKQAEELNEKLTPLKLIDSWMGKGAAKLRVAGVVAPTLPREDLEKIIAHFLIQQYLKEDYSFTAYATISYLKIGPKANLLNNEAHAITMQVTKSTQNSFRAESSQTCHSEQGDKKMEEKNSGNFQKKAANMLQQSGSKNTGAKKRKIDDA

This is a selection; strong and weak results do not stand in their true shares. Records with an inconclusive call do not appear. Active and inactive are the calls of the source. Unless noted, the call rests on the fitted dose curve; in most records, active means well fitted curve in the direction sought with a large enough effect; inconclusive means small, poorly fitted or top-dose-only effect, or another doubt; inactive means no such curve, though single readings can be large; an effect the other way counts as inactive or inconclusive.

The nature of assay [1]: qHTS Assay for Identification of Small Molecule Inducers of Hypoxia Response (AID 2120; active means well fitted curve in the direction sought with a large enough effect in the signal ratio, with a control signal flat, not every such curve was filed as active; the % refers to the signal ratio; further: 0% is about no effect). Conditions: hypoxia response reporter cells, beta-lactamase ratio readout; at 104 µM (top of the series). The text has this:
(§1) NIH Chemical Genomics Center [NCGC]
NIH Molecular Libraries Screening Centers Network [MLSCN]
National Institutes of Environmental Health Sciences [NIEHS]
National Toxicology Program [NTP]
Hypoxia-inducible factor-1 (HIF-1) is the major hypoxia-regulated transcription factor that controls cellular responses to low oxygen concentration. HIF-1 is composed of two subunits: hypoxia responsive HIF-1a and constitutively expressed HIF-1b, which is also known as aryl hydrocarbon receptor nuclear translocator. During hypoxic conditions, HIF-1a heterodimerizes with HIF-1b and translocates into the nucleus where the HIF-1 complex binds to the hypoxia-response element (HRE) and activates expression of target genes such as VEGF (vascular endothelial growth factor). The HIF-1 pathway is essential to normal growth and development, and is involved in the pathophysiology of cancer, inflammation, and ischemia.
Using a beta-lactamase reporter-gene under control of the hypoxia response element, a cell-based assay [CellSensor(TM) HRE-bla ME-180 developed by Invitrogen Corp.] was used to measure hypoxia-induced signaling. Library compounds were measured for their ability to induce the reporter gene activity. Compounds were screened in a titration series in 1536-well format. The inducers were identified based on the AC50 values derived from the screening data.
NCGC Assay Protocol Summary
2500 cells/5uL in Opti-MEM medium containing 0.5% dialyzed FBS, 0.1 mM NEAA, 1 mM sodium pyruvate and 10 mM HEPES was dispensed into 1536-well plates and cells were cultured at 37 degrees Celsius for 4-5 hours and then 23 nL of compounds or DMSO were delivered to each well using a pin tool. The plates were incubated at 37 degrees Celsius for 17 hours. 1 uL of CCF4-dye mixture was added to each well. After incubated at room temperature for 2.5 hours the plates were measured on an EnVision plate reader at Excitation 405nm, Emission1=460nm and Emission 2=530nm. The %Activity was determined from the ratio of 460nm/530nm.

Assay [2] is described as follows: qHTS Assay for Lipid Storage Modulators (AID 1519; calls by dose curve; further: on the % scale 0 is the no-effect control and ±100 the full control effect). The settings on record: Drosophila S3 cells, BODIPY lipid droplet/cell ratio, laser cytometry, cells loaded with oleic acid; at 57.5 µM (top of the series) unless noted.
A short description of assay [3]: Validation of Assay for Modulators of Lamin A Splicing (AID 1459; active means well fitted curve in the direction sought with a large enough effect in the signal ratio; the % refers to the signal ratio;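 further: cells exposed to compound for two days before reading; 0% is about no effect; ratio rise marks activators and ratio drop marks inhibitors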). Conditions: Lamin A splicing dual RFP/GFP fluorescence reporter; at 9.22 µM (top of the series). An outline of the steps:
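S3 HeLa cells stably expressing a lamin A-EGFP splicing minigene and DsRed2 were seeded at 600 cells/well in Opti-MEM with 2% FBS, pin-dosed, and incubated 48 hrs at 37 °C, 5% CO2. Laser-scanning cytometry (488 nm) gave GFP/RFP total intensity ratio.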

The target of assay [4] is DNA repair nuclease/redox regulator APEX1 (Homo sapiens) (UniProt P27695). Put plainly: qHTS Validation Assay for Inhibitors of the Human Apurinic/apyrimidinic Endonuclease 1 (APE1) (AID 1705;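 further: TAMRA fluorescence gain over two minutes as APE1 cuts a quenched THF abasic duplex; on the % scale 0 is the no-effect control and ±100 the full control effect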). The settings on record: purified APE1 endonuclease activity, fluorescence, titration; at 57.1 µM (top of the series). In outline: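 Human APE1 was preincubated with compound for 15 min at room temperature, then 50 nM (final) THF-abasic double-stranded DNA substrate bearing 5'-TAMRA and 3'-BHQ-2 was added. Incision-driven fluorescence rise (ex 525/em 598 nm) was read kinetically.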

A short description of assay [5]: qHTS Assay for Modulators of Human Peripheral Myelin Protein 22 (PMP22) Expression/Activity (AID 1967; active means well fitted curve in the direction sought with a large enough effect in the signal ratio; the % refers to the signal ratio;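 further: 0% = untreated cells and 100% end not stated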). Conditions: Cell-based PMP22 reporter, dual-color luciferase ratio, 0% = compound-free control cells, mouse Pmp22 promoter in mouse Schwann cells; at 115 µM (top of the series).
Text: Charcot-Marie-Tooth-Association [CMTA]
as §1
Charcot-Marie-Tooth (CMT) disease was first characterized by Jean-Martin Charcot and Pierre Marie in France and, independently, by Howard Henry Tooth in England in 1886. CMT is one of the most common inherited neurological diseases, affecting about 125,000 Americans. […] The most common cause of CMT is known as CMT1A, and is caused by a duplication of the PMP22 gene, leading to over-expression of this protein. PMP22 is a glycosylated intrinsic membrane protein accounting for 2-5% of the myelin protein content and over-expression leads to demyelination and subsequently axonal loss. […]
Cells were seeded in white solid 1536-well plates at between 500-750 cells/4uL in DMEM medium containing 10% FBS, w/o phenol red. […] Luminescence was measured on a ViewLux plate reader (Perkin Elmer) using a 540/25 nm filter for green luminescence and a 618/8 nm filter for red luminescence. The green and red luminescent signals were corrected for red and green luminescence filter overlap using filter calibration constants (determined using control cell lines expressing either the green or red CBLuc reporters using the procedures given in Davis et al., 2007). The %Activity was determined from the ratio of corrected green/red luminescent values. […]
Keywords: luminescence, PMP22, CMT1A, NCGC, CMTA, qHTS […]

The target in assay [6] is ATP-dependent DNA helicase Q1 (Homo sapiens) (UniProt P46063). The assay is described as follows: qHTS Validation Assay for Inhibitors of RecQ-Like Dna Helicase 1 (RECQ1) (AID 2353).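 Further: plate controls were DMSO vehicle for no effect and enzyme-free control for full effect.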 The settings on record: recombinant RECQ1 helicase DNA unwinding assay; at 25.6 µM (top of the series). In outline:
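RECQ1T1 50 nM; forked duplex (20 bp + 30-nt ss tails) 200 nM, ATP 2 mM final; pH 8.0, 2 mM MgCl2, 2.5 ug/ml poly(dI-dC); 15 min compound preincubation; discontinuous kinetic read over 2 h at RT.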

The nature of assay [7]: Cytometric Cell-Based qHTS for Inhibitors of the mTORC1 Signaling Pathway in MEF (Tsc2-/-, p53-/-) Cells (AID 2660).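 Further: percent of cells above a phospho-rpS6 to PI ratio cutoff in each well; plate controls were DMSO for no effect and rapamycin for full effect.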 The settings on record: mTORC1 pathway cytometry; at 38.3 µM (top of the series). An outline of the steps:
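Tsc2-/-, p53-/- MEFs (empty vector) exposed to compound 24 h at 37 C, fixed, stained with Alexa-488 anti-phospho-rpS6 Ser235/236 and propidium iodide. Acumen laser scanning; phospho-S6/PI ratio thresholded against 7.5 nM rapamycin, reported as % positive cells.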

Assay [8] can be described thus: High Content Imaging Cell-Based qHTS for Inhibitors of the mTORC1 Signaling Pathway in MEF (Tsc2-/-, p53-/-) Cells (AID 2666).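 Further: percent of cells scored positive for phospho-rpS6 Ser235/236 immunostaining by imaging.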 The settings on record: at 38.3 µM (top of the series). An outline of the steps:
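Tsc2-/-, p53-/- MEFs (empty-vector stable) grown in DMEM + 10% FBS were exposed to compounds for 24 hrs at 37 degree Celsius, fixed, and stained with Alexa-488 anti-phospho-rpS6 Ser235/236 plus Hoechst. Imaging gave the percentage of positive cells per well.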

Assay [9] in a line: High Content Imaging Cell-Based qHTS for Inhibitors of the mTORC1 Signaling Pathway in MEF Cells (AID 2667). The settings on record: at 38.3 µM (top of the series). An outline of the steps: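 Tsc2-/-, p53-/- MEFs stably re-expressing WT Tsc2, grown in DMEM + 10% FBS, were treated with compounds for 24 hrs at 37 degree Celsius, fixed, and stained with Alexa-488 phospho-rpS6 Ser235/236 antibody plus Hoechst; results given as % positive cells.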

The nature of assay [10]: Cytometry Cell-Based qHTS for Inhibitors of the mTORC1 Signaling Pathway in MEF cells (AID 2668).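 Further: Tsc2-/- p53-/- mouse embryonic fibroblasts stably re-expressing wild-type Tsc2; percent cells positive for phospho-rpS6 Ser235/236 relative to propidium iodide stain; plate controls were DMSO wells for no effect and 7.5 nM rapamycin control wells for full effect.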 Conditions: mTORC1 pathway readout; at 38.3 µM (top of the series). In outline: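 WT MEFs (Tsc2-/-, p53-/- stably re-expressing WT Tsc2) in DMEM + 10% FBS received compounds 24 hrs after plating, for 24 hrs at 37 degree Celsius. Fixed cells stained with Alexa-488 anti-phospho-rpS6 Ser235/236 and propidium iodide; laser-scanning cytometry read-out.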

On to `[NH4+].[O-][Cl+3]([O-])([O-])[O-]`, for which the activation in [1] was inactive: -0.146%.

Take `Cc1c([N+](=O)[O-])cccc1[N+](=O)[O-]`: the activation in [1] was inactive: -0.524%.

As for `Cc1cccc([N+](=O)[O-])c1[N+](=O)[O-]`, the activation in assay [1] is inactive: 1.31%.

For `C/C1=C2N=C(/C=C3N=C(/C(C)=C4\[N-][C@@](C)([C@H]5N=C1[C@@](C)(CCC(=O)NC[C@H](C)OP(=O)([O-])O[C@@H]1[C@H](O)[C@H](n6cnc7cc(C)c(C)cc76)O[C@@H]1CO)[C@@H]5CC(N)=O)[C@](C)(CC(N)=O)[C@H]4CCC(N)=O)[C@@](C)(CC(N)=O)[C@@H]\3CCC(N)=O)C(C)(C)[C@@H]/2CCC(N)=O.[C-]#N.[Co+3]`, in assay [2], the activity change, negative = inhibition is inactive: 1.76% [at 25.7 µM].

Take `CCN(CCCl)Cc1ccccc1C`: the activity change, negative = inhibition in assay [2] was inactive: 6.87%.

For the compound `CCC(C)(OO)OOC(C)(CC)OO` (stereo unspecified), the activation in assay [1] is inactive: 0.0975%.

On to `Cc1ccc([N+](=O)[O-])c([N+](=O)[O-])c1`, for which the activation in [1] was inactive: 1.26%.

Regarding `CCOP(=O)(CC)OCC`, the activation in [1] is inactive: 0.826%.

Turning to `OCCSCCO`, the activity change, negative = inhibition in assay [2] was inactive: 3.57%.

As for `N#[O+].[C-]#N.[C-]#N.[C-]#N.[C-]#N.[C-]#N.[Fe+2].[Na+].[Na+]`, the ratio change, both ways in [3] was inactive: -4.7%. Besides, the activity change, negative = inhibition was inactive: -4.01% in assay [2]; inactive: 2.33% in [4]; inactive: 3.11% in assay [6]; inactive: 3.04% in assay [7]; inactive: -4.09% in assay [10]. In assay [5], the activity change (ratio) is inactive: 21.5%. Besides, the compound was classed as inactive in [8] and in assay [9].

On to `O=[N+]([O-])c1cccc([N+](=O)[O-])c1`, for which, in assay [1], the activation is inactive: -0.609%.

Take `O=[N+]([O-])[O-].[NH4+]`: the activation in [1] was inactive: -0.0807%.

On to `Cc1ccc([N+](=O)[O-])cc1[N+](=O)[O-]`, for which, in [1], the activation was inactive: 0.331%.
